Amino acid sequences for entries named in this document (tags omitted).
UniProt Q13191, whole entry: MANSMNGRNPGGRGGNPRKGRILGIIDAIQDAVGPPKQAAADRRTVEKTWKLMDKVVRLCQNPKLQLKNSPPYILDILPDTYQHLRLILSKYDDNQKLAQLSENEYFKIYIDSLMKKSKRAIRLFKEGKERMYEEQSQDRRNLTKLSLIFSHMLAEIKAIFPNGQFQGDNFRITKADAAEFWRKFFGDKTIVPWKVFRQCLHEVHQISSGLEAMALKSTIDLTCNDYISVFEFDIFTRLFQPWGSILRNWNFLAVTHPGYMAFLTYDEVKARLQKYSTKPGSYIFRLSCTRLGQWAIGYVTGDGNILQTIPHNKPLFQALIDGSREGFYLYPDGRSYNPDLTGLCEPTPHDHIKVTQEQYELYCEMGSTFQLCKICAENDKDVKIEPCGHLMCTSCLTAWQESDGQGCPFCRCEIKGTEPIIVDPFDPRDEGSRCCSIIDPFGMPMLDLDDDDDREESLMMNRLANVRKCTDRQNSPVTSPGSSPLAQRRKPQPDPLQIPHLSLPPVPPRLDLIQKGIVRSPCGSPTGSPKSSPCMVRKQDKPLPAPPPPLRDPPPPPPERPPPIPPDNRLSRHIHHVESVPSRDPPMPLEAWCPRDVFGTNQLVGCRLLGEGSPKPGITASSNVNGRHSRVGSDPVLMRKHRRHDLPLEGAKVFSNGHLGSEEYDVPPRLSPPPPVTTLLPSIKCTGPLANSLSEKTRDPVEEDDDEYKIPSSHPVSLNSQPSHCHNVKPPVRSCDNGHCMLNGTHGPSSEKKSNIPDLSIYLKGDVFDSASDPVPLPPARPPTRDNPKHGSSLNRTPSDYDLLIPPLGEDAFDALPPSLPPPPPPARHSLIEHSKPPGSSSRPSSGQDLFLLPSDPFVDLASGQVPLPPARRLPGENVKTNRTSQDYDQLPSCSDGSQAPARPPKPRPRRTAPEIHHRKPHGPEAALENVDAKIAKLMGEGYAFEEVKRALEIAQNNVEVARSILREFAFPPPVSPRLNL

According to ChEMBL document CHEMBL5537183, “Discovery, Optimization, and Biological Evaluation of Arylpyridones as Cbl-b Inhibitors” (J Med Chem, 2024):

Assays:
[1] = target: T1, E3 ubiquitin-protein ligase CBL-B (Homo sapiens, UniProt Q13191); assay: Inhibition of biotinylated recombinant Cbl-b (36 to 427 residues)(unknown origin) expressed in Escherichia coli BL21(DE3) Tuner cells assessed as decrease in Cbl-b auto-ubiquitination incubated for 60 mins in presence of Ub-FITC/ATP by TR-FRET assay
[2] = target: T1, E3 ubiquitin-protein ligase CBL-B; assay: Inhibition of biotinylated recombinant Cbl-b (36 to 427 residues)(unknown origin) expressed in Escherichia coli BL21(DE3) Tuner cells assessed as decrease in ZAP70 ubiquitination incubated for 60 mins in presence of Ub-FITC/ATP by TR-FRET assay
[3] = target: T1, E3 ubiquitin-protein ligase CBL-B
[4] = target: T1, E3 ubiquitin-protein ligase CBL-B; assay: Inhibition of biotinylated recombinant Cbl-b (36 to 427 residues)(unknown origin) expressed in Escherichia coli BL21(DE3) Tuner cells using a FAM-labeled probe by TR-FRET assay

Structure (SMILES) | IC50 [1] | IC50 [2] | EC50 [3] | IC50 [4]
C[C@@H](c1cnn(C)c1)n1cc(C(F)(F)F)cc(-c2cccc([C@]3(c4nncn4C)C[C@@H](C)C3)c2)c1=O | 63.4 nM | 84.1 nM | 610 nM | –
C[C@H](c1cnn(C)c1)n1cc(C(F)(F)F)cc(-c2cccc([C@]3(c4nncn4C)C[C@@H](C)C3)c2)c1=O | 119 nM | 135 nM | 760 nM | 40 nM
